ChEMBL document CHEMBL1156056, “Phosphoinositide-3-kinase (PI3K) inhibitors: identification of new scaffolds using virtual screening” (Bioorg Med Chem Lett, 2009)

Chains of the proteins cited; added tags and fusions are not shown. Lines headed by an entry give the natural chain unless they say otherwise; changes in a name come on top.
UniProt P42338: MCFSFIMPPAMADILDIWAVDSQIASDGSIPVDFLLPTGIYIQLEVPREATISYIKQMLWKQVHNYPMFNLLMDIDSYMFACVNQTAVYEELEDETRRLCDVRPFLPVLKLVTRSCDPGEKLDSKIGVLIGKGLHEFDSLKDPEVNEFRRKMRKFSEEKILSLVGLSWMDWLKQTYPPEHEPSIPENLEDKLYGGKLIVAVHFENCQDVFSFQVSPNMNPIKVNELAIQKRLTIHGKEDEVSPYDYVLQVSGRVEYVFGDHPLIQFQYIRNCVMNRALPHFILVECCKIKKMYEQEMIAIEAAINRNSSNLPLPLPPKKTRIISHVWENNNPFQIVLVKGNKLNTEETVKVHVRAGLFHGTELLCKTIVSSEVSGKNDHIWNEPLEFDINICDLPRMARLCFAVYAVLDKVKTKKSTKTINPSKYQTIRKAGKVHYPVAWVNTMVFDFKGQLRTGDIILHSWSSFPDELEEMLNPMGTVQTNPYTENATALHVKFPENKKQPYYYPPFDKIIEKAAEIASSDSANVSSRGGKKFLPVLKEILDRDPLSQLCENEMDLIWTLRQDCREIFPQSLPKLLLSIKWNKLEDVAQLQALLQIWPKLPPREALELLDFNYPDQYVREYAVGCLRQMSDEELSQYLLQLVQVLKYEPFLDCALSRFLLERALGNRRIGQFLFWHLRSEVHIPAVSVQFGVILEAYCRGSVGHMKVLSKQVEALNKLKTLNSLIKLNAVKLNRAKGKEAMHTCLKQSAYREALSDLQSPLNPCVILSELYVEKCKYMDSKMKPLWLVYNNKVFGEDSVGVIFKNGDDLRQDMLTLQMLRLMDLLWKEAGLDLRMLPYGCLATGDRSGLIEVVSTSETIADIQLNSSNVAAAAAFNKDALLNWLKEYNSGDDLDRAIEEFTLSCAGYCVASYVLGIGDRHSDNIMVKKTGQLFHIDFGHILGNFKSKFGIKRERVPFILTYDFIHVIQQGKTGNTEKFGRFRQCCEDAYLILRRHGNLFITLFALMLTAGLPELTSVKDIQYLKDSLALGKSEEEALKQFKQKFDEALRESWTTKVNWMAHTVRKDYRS

Experiments:
[1] = Inhibition of bovine recombinant PI3Kgamma expressed in baculovirus-infected Sf21 cells; parameters: species or system Bos taurus
[2] = biological target: Phosphatidylinositol 4,5-bisphosphate 3-kinase catalytic subunit beta isoform (Homo sapiens, UniProt P42338); experiment: Inhibition of human recombinant PI3Kbeta expressed in baculovirus-infected Sf21 cells

**Q.** For `O=c1cc(N2CCOCC2)oc2c(-c3ccccc3)cccc12` [LY-294002], which IC50 [1] is on record?
**A.** 7 µM

**Q.** What about the IC50 [2] of the same compound?
**A.** 0.9 µM
